Earlier results, collected in PMC7216583, “Two old drugs, NVP-AEW541 and GSK-J4, repurposed against the Toxoplasma gondii RH strain” (Parasites & Vectors, 2020).

Experiments:
Akt2 = test system: Akt2; parameters: method as in vendor brief description; details: ref vendor brief description; cited from earlier work
ACAT = test system: ACAT; parameters: method as in S-inhibitor; details: ref S-inhibitor; cited from earlier work

SMILES	IC50 (Akt2)	IC50 (ACAT)
CC(C)NC[C@@H](C(=O)N1CCN(c2ncnc3c2[C@H](C)C[C@H]3O)CC1)c1ccc(Cl)cc1 [GDC-0068]	0.018 µM	
CC(C)c1cc(C(C)C)c(CC(=O)NS(=O)(=O)Oc2c(C(C)C)cccc2C(C)C)c(C(C)C)c1 [Avasimibe (CI-1011)]		3.3 µM
